According to patent US11827580B2, “Aminotetraline activators of serotonin receptors” (ATAI Life Sciences AG, priority 2021, dated 2023):
Where a name gives a salt, the structure may show the parent alone.

The chains behind the UniProt entries cited, without tags or fusion partners.
UniProt P28223, whole entry: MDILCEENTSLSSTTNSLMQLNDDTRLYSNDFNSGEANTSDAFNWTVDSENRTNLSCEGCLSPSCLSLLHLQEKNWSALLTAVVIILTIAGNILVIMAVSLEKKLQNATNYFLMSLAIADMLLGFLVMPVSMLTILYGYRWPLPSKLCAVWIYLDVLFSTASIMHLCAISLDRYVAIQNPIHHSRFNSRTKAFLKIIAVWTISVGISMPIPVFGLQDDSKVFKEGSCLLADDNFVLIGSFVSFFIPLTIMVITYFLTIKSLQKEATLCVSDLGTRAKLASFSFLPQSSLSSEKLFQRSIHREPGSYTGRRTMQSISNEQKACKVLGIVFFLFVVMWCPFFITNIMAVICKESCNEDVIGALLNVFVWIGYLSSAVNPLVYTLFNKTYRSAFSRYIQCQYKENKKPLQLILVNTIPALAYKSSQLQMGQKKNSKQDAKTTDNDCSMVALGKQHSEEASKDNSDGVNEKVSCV

Molecular target: 5HT2A (Homo sapiens, UniProt P28223)
Experiment: 5HT2A activation (%) max at two concentrations (Table 1)
Type: cell-based

## COc1ccc(OC)c2c1CCC(N)C2 (centres unmarked) [Compound 1-3, 5,8-dimethoxy-1,2,3,4-tetrahydronaphthalen-2-amine hydrochloride]
03 μM [sic]
  5HT2A activation (%) max @ 03 μM: 12.1%
30 μM (first value of the cell)
  5HT2A activation (%) max @ 30 μM: 67.1%
